The values below come from PMC11434980, “Deciphering Chemical Rules for Drug Penetration into Strongyloides” (Pharmaceutics, 2024).

The subject of the test is S. venezuelensis L3s. On the procedure: Baerman-obtained S. venezuelensis L3s were rinsed twice with distilled water and counted, and 100 to 150 larvae were placed per well in 96-well flat-bottom culture plates. Larvae were incubated at 28 °C for 30 min to allow adaptation and treated with compounds in the range of 0.5–40 µM for 72 h at 28 °C in a humid atmosphere. Mortality was assessed as the lack of any movement detected during 1 min of observation under an inverted microscope (40×), at 24, 48, and 72 h after treatment. The ability to stain the larvae was pointed out when observed; at 72 h, larvae were collected and washed two times with distilled water and placed in a new well to remove the background color and photographed. Pictures were also taken at 24 and 48 h without cleaning the larvae so as not to interfere with the 72 h readout of the experiment. […] All experiments were conducted in triplicate and at least three different times. The antiparasitic activity of the compounds was expressed as the concentration that inhibited the motility of half of the larvae (immobilization concentration 50, IC50).
A total of 15 dyes were tested against S. venezuelensis L3s at a 20 µM concentration. The activity was determined by the number of larvae lacking motility relative to the total number in the well after 1 min of light excitation at 24, 48, and 72 h after treatment.

For `CN(C)c1ccc2nc3ccc(=[N+](C)C)cc-3sc2c1` [Methylene Blue], the “Screening 20 µM 72 h” value is “Active”.
